Protein sequences, listed by entry. Tags and fused reporters are not part of them. Residues count along the entry.
UniProt P01375, 77-233: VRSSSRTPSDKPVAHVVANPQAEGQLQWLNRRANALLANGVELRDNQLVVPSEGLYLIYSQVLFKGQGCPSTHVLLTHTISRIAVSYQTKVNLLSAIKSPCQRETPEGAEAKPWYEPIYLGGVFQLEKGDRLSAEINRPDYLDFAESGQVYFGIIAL

In article PMC8805405, “A universal in silico V(D)J recombination strategy for developing humanized monoclonal antibodies” (Journal of Nanobiotechnology, 2022):

Molecular target: T1, recombinant human TNF-α (Homo sapiens, UniProt P01375)
T1 construct: tumor necrosis factor alpha, human, recombinant; also called tumor necrosis factor (TNF)-α; source: bought: R&D Systems
Assay: BLI; BLItz; human TNF-α (5 μg/mL in 10 mM acetate, pH 5) immobilised on AR2G biosensors by EDC/s-NHS; various concentrations of antibody at room temperature; global fit, BLItz Pro 1.2
Details: both partners purified

Kd: 0.513 nM
koff: 9.53e-05 s⁻¹
kon: 186000 M⁻¹ s⁻¹
B1: recombinant Remicade (antibody, V domains shown)
VH: EVKLEESGGGLVQPGGSMKLSCVASGFIFSNHWMNWVRQSPEKGLEWVAEIRSKSINSATHYAESVKGRFTISRDDSKSAVYLQMTDLRTEDTGVYYCSRNYYGSTYDYWGQGTTLTVSS
VL: DILLTQSPAILSVSPGERVSFSCRASQFVGSSIHWYQQRTNGSPRLLIKYASESMSGIPSRFSGSGSGTDFTLSINTVESEDIADYYCQQSHSWPFTFGSGTNLEVK
notes: heavy chain of Remicade (mouse VH, human constant region); light chain of Remicade (mouse VL, human constant region); Chimeric whole antibody made recombinantly here (detected with anti-human IgG-Fc); also called rRemicade; parental chimeric mAb; source: Expi293, transfected, purified (protein A sepharose)
